Measured values: US5124322A, “Dipeptide collagenase inhibitors” (Beecham Group p.l.c., priority 1988, dated 1992)
Read-outs that look alike come from different tables or passages of the source.

Chains of the proteins cited; added tags and fusions are not shown. Residues count along the entry.
UniProt P13943, 99-468 limits assumed: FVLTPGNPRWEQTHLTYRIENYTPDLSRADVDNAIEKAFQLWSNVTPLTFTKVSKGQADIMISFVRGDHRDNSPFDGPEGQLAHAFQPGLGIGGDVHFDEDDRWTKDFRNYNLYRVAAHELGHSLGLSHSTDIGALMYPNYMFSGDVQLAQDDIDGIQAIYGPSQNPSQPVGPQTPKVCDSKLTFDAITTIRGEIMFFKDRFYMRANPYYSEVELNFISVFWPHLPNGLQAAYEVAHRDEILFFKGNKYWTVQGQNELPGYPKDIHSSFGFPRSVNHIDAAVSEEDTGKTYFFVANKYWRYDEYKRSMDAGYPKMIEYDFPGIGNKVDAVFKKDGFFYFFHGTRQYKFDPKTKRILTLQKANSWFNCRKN
UniProt P03956, 100-469 limits assumed: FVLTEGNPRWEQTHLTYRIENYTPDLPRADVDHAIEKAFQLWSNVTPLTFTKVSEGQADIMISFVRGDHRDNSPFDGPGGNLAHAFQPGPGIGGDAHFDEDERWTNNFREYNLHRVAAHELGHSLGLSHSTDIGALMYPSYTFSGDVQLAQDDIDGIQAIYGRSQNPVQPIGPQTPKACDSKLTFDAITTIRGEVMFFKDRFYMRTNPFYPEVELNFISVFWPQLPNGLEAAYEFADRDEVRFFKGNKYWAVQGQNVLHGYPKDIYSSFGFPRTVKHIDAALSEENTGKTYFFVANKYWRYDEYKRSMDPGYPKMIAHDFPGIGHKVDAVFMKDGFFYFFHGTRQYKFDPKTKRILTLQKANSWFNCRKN

Experiments:
rabbit bone collagenase = rabbit bone collagenase (Oryctolagus cuniculus, UniProt P13943); experiment: Collagenase inhibitor assay, rabbit bone collagenase (14C-collagen fibril degradation); details: read-out: IC50, Inhibition of rabbit bone collagenase; collagenase purified from cultures of rabbit bone; 14C-acetylated collagen substrate, 37° C. overnight
Description: (§1) The test is performed essentially as in Cawston and Barrett, Anal. Biochem. 99, 340-345 (1979). Compounds for testing are dissolved in methanol and added to collagenase (purified from cultures of rabbit bone or from culture supernatants from the human lung fibroblast cell line, WI-38) in buffer. In order to ensure that thiol collagenase inhibitors remained unoxidised, β-mercaptoethanol may be incorporated in the methanol solvent and/or the diluent buffers. The minimal direct effect of β-mercaptoethanol on the degradation of collagen by human or rabbit collagenase is controlled for. After a 5-15 min pre-incubation at 37° C., the assay tubes are cooled to 4° C. and ^14 C-acetylated rat skin […] collagen is added. The assay tubes are incubated at 37° C. overnight. The ^14 C-collagen forms insoluble fibrils which are the substrate for the enzyme.
(§2) To terminate the assay, the assay tubes are spun at 12000 rpm for 15 min. Undigested ^14 C-collagen is pelleted, while digested ^14 C-collagen is found as soluble peptides in the supernatant. A sample of the supernatant is taken for liquid scintillation counting.
(§3) The activity of collagenase inhibitors (IC50 : 50% inhibitory concentration) is expressed as that concentration of compound that inhibits a known (standard) concentration of enzyme by 50%.

[1] = molecular target: human lung fibroblast collagenase (Homo sapiens, UniProt P03956); experiment: Collagenase inhibitor assay, human lung fibroblast collagenase (14C-collagen fibril degradation); details: collagenase from WI-38 culture supernatants
Description: as §1, §2, §3

Row | IC50 (rabbit bone collagenase) [nM] | IC50 ([1]; read-out: IC50, Inhibition of human lung fibroblast collagenase, +mercaptoethanol, * = +mercaptoethanol) [nM] | IC50 ([1]; read-out: IC50, Inhibition of human lung fibroblast collagenase, without mercaptoethanol) [nM] | Compound
1 | 1900 |  |  | CNC(=O)[C@H](Cc1ccc(OC)cc1)NC(=O)C(Cc1ccccc1S)CC(C)C (single isomer, unassigned) [1 A]
2 | 1400 | 24 | 710 | CNC(=O)[C@H](Cc1ccc(OC)cc1)NC(=O)C(Cc1ccccc1S)CC(C)C (single isomer, unassigned) [1 B]
